What was measured:
α7 nAChR = α7 nAChR (Homo sapiens, UniProt P36544); assay: 125I-αBgt radioligand competition assay, α7 nAChR-transfected GH4C1 cells; conditions: for IC50: read-out: IC50, μM (95% CI) human α7 nAChR, competition with 125I-αBgt, GH4C1 cells; for effect on 125I-αBgt binding to GH4C1 cells: 40 μM
T. californica nAChR = T. californica nAChR (Tetronarce californica, UniProt P02710+P02714+P02718); assay: 125I-αBgt radioligand competition assay, Torpedo membranes; conditions: for IC50: read-out: IC50, μM (95% CI) T. californica nAChR, competition with 125I-αBgt, Torpedo membranes; for effect on 125I-αBgt binding to Torpedo membranes: 40 μM
L. stagnalis AChBP = L. stagnalis AChBP (Lymnaea stagnalis, UniProt P58154); assay: 125I-αBgt radioligand competition assay, AChBP; conditions: read-out: IC50, μM (95% CI) L. stagnalis AChBP; competition with 125I-αBgt
[1] = listed as sodium dodecyl sulfate

Protein sequences, listed by entry. Tags and fused reporters are not part of them. Lines headed by an entry give the natural chain unless they say otherwise; changes in a name come on top. Residues count along the entry.
UniProt P36544, 23-502 limits assumed: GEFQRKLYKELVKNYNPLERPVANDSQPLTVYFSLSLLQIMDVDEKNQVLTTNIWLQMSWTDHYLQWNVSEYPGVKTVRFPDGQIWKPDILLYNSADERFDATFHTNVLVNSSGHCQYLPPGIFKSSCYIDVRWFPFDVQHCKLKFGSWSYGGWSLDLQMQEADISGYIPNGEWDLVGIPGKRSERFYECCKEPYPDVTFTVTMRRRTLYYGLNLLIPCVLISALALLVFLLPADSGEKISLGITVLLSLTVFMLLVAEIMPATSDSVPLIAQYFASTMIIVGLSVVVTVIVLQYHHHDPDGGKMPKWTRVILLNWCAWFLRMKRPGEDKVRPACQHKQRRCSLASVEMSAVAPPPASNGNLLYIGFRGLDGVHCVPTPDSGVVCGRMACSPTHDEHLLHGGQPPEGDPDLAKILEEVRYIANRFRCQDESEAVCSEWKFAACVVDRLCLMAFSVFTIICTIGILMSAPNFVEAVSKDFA
UniProt P02710: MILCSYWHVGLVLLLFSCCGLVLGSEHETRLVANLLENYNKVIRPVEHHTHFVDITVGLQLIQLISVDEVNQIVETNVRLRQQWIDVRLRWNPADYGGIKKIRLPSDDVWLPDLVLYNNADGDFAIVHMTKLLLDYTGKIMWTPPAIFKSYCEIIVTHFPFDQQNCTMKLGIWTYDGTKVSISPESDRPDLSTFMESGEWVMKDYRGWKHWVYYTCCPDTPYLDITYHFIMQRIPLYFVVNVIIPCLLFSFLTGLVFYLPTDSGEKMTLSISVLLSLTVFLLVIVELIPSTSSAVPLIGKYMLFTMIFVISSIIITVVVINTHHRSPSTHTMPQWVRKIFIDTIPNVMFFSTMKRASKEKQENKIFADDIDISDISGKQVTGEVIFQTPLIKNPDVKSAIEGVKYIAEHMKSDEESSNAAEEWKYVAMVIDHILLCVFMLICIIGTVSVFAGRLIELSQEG
UniProt P02714: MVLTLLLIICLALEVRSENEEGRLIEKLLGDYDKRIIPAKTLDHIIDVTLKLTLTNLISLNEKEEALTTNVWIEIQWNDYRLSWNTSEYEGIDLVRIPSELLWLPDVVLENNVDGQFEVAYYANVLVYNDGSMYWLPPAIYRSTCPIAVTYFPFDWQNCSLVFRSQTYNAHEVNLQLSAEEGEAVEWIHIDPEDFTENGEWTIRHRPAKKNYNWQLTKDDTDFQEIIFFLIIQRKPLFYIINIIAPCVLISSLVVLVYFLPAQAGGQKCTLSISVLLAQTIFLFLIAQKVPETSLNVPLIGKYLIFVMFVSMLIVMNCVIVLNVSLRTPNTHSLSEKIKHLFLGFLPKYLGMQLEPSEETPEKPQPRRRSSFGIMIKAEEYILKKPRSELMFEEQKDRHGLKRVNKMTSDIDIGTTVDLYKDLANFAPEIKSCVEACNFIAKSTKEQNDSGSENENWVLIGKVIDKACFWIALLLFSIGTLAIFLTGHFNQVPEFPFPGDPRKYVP
UniProt P02718: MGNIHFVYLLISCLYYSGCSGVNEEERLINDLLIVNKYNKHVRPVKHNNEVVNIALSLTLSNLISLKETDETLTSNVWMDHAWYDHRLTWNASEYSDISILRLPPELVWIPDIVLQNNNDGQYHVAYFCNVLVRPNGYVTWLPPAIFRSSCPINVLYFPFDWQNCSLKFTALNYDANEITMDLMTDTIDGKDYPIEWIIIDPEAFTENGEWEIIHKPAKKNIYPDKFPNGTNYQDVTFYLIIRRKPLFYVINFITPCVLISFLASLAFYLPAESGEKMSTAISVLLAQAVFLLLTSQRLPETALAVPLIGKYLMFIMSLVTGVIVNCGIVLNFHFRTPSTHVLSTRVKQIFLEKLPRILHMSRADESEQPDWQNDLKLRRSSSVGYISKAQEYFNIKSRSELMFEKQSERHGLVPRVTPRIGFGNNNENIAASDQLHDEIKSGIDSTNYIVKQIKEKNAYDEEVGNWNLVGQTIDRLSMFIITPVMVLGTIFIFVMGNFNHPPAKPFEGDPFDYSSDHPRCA
UniProt P58154, 20-229 limits assumed: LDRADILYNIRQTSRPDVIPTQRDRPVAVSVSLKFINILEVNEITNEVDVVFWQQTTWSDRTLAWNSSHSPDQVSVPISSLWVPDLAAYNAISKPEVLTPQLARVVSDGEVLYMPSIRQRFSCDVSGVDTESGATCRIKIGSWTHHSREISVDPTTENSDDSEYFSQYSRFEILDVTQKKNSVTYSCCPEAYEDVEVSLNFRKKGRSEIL

Compound | activity in competition experiments on α7 nAChR (α7 nAChR) | IC50 (α7 nAChR) [µM] | activity in competition experiments on T. californica nAChR (T. californica nAChR) | IC50 (T. californica nAChR) [µM] | IC50 (L. stagnalis AChBP) [µM] | effect on 125I-αBgt binding to GH4C1 cells (α7 nAChR) | effect on 125I-αBgt binding to GH4C1 cells (α7 nAChR; [1]) | effect on 125I-αBgt binding to Torpedo membranes (T. californica nAChR) | effect on 125I-αBgt binding to Torpedo membranes (T. californica nAChR; [1])
CC/C=C\C/C=C\C/C=C\C/C=C\C/C=C\C/C=C\CCC(=O)OCC[N+](C)(C)C [DHA-CHOL, docosahexaenoylcholine] | virtually inactive | 80 | virtually inactive | 93 | 25.1 | – | – | – | –
CCCCCCCC/C=C\CCCCCCCC(=O)OCC[N+](C)(C)C [Ol-CHOL] | – | – | – | 39.8 | 13.4 | – | – | – | –
CCCCC/C=C\C/C=C\CCCCCCCC(=O)OCC[N+](C)(C)C [Ln-CHOL] | – | 23.1 | – | 18.7 | 2.3 | – | – | – | –
CCCCC/C=C\C/C=C\C/C=C\C/C=C\CCCC(=O)OCC[N+](C)(C)C [AA-CHOL, Arachidonoylcholine] | – | 35.9 | – | 47.6 | 21.3 | – | – | – | –
sodium dodecyl sulfate | – | – | – | – | – | did not differ from the control values | did not inhibit α-bungarotoxin binding | did not differ from the control values | did not inhibit α-bungarotoxin binding

From PMC7072677, “Arachidonoylcholine and Other Unsaturated Long-Chain Acylcholines Are Endogenous Modulators of the Acetylcholine Signaling System” (Biomolecules, 2020)
